{
  "source": "paper PMC10459710",
  "about": "(Viruses, 2023)",
  "tested_on": "HSV-1",
  "test": "Virus attachment assay (IFA, anti-gD)",
  "type": "cell-based, Herpes simplex virus type 1 (strain H129)",
  "conditions": "100 µg/mL, 4 °C, MOI 10",
  "data": [
    {"substance": "Dextran Sulfate Sodium [DSS]", "values": [
      {"measurement": "binding of HSV-1 to Vero cells", "value": "completely inhibited the binding"}
    ]}
  ]
}
